This assay concerns the target hNav 1.7 (Homo sapiens (Human), UniProt Q15858). Description: Electrophysiological evaluation, automated patch clamp IonWorks Quattro (Population Patch Clamp mode). The conditions noted are these: HEK293A cells stably expressing hNav 1.7/β1/β2; response to second depolarization pulse, pre-pulse potential set to V1/2; read-out: hNav1.7 IC50. It is filed as cell-based. For orientation: Patch clamp records ionic current or voltage across a cell membrane.

Amino acid sequences for entries named in this document (tags omitted).
UniProt Q15858, whole entry: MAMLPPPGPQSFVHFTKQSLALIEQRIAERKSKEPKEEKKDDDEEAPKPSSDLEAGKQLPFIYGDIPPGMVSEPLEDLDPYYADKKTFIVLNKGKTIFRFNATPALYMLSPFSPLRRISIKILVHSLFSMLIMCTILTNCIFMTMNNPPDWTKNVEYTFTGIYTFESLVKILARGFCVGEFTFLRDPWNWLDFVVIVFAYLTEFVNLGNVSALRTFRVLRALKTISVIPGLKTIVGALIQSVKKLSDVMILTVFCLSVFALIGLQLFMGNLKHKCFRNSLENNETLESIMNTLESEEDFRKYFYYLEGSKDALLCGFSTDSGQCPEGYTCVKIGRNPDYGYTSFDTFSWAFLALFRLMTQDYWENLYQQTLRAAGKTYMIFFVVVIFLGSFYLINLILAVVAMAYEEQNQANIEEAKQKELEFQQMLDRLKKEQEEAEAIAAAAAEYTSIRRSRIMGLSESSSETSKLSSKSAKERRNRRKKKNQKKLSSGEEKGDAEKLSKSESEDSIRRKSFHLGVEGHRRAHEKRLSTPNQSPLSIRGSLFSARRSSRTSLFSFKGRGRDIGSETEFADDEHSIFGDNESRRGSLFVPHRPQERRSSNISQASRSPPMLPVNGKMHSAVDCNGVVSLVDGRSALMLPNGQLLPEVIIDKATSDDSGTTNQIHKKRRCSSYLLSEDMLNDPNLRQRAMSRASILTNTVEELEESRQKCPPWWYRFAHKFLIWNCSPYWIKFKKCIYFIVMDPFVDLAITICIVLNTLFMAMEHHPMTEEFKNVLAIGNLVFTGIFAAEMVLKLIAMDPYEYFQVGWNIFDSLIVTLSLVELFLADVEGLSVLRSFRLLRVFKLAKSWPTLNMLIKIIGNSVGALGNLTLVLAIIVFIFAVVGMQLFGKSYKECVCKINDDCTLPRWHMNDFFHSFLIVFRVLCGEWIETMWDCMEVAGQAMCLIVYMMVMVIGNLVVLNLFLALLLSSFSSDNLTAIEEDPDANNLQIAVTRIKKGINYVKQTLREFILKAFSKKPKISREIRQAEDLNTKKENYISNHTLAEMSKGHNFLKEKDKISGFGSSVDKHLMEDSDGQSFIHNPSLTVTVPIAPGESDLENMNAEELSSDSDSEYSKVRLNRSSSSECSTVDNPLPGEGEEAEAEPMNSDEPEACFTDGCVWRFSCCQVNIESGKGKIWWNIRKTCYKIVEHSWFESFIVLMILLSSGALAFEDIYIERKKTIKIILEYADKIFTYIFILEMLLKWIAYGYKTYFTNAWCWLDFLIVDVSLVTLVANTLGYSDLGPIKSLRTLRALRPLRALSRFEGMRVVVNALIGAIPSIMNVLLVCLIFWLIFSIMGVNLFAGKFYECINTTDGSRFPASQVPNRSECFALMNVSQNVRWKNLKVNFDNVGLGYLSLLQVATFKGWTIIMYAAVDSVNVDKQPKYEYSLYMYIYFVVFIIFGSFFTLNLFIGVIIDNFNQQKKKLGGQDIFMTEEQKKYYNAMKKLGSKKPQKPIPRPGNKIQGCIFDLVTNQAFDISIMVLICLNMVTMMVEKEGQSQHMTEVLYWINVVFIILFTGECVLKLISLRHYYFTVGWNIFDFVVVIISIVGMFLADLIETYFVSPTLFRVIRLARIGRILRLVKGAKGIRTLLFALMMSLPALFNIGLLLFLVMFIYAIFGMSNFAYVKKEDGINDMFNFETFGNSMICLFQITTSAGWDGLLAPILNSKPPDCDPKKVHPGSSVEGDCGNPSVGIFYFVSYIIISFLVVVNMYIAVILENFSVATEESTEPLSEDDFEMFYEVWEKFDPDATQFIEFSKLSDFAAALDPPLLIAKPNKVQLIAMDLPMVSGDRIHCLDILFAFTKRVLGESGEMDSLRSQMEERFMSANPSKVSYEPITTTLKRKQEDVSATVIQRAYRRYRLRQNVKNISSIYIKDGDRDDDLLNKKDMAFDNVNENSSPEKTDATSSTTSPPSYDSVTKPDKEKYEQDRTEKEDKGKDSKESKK

Molecules are shown by their SMILES.

In general, IC50 refers to the concentration at which inhibition is half-maximal. Turning to `Cn1nccc1[C@H]1CC[C@H](OCc2ccccc2)C[C@@H]1Oc1cc(F)c(S(=O)(=O)Nc2ccncn2)cc1F` (relative stereo) [Example 113, 4-{[(1S*,2R*,5S*)-5-(Benzyloxy)-2-(1-methyl-1H-pyrazol-5-yl)cyclohexyl]oxy}-2,5-difluoro-N-(pyrimidin-4-yl)benzenesulfonamide], the IC50 was found to be 1 µM.
For `O=S(=O)(Nc1ccncn1)c1cc(F)c(OC2CCCCC2n2ccnc2)cc1F` (stereo not drawn) [Example 32, 2,5-Difluoro-4-{[(1S*,2R*)-2-(1H-imidazol-1-yl)cyclohexyl]oxy}-N-(pyrimidin-4-yl)benzenesulfonamide], the IC50 was 1 µM.

Values taken from patent US9493448B2, “Cycloalkane derivatives” (Daiichi Sankyo Company, Limited, priority 2012, dated 2016).
